Assay results as given in publication PMC8881512 (Nature Communications, 2022).

Protein sequences, listed by entry. Tags and fused reporters are not part of them.
UniProt O95835, whole entry: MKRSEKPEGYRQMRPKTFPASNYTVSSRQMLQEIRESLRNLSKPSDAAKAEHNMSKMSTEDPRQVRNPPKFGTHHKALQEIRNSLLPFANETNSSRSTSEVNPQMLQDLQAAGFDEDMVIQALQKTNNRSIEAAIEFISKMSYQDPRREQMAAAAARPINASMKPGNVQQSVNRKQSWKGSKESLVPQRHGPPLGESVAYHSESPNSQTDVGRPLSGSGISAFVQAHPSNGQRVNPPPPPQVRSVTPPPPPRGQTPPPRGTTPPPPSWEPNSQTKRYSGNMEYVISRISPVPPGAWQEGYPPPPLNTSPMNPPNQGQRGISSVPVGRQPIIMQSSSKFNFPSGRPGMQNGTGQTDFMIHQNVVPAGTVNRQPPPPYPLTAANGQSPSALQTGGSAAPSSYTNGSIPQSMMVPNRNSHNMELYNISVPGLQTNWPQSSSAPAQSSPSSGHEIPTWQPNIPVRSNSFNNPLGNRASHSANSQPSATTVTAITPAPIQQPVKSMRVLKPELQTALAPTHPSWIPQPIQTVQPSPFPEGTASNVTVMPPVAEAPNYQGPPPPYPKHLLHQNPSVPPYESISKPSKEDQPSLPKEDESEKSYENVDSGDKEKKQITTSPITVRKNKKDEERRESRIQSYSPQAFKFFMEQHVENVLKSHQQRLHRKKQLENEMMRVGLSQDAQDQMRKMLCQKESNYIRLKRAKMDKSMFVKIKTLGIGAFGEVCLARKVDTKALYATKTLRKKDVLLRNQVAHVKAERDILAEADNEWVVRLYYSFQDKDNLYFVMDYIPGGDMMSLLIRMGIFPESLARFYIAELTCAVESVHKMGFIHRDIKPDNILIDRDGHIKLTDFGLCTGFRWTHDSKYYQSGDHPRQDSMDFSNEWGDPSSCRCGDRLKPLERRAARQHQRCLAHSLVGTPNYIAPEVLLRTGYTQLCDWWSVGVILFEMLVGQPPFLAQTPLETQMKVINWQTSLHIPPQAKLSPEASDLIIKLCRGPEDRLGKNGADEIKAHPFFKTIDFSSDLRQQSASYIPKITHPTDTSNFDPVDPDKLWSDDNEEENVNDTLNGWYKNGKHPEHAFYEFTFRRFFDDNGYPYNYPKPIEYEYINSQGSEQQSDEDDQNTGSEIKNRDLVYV

Biological target: LATS1 (Homo sapiens, UniProt O95835)
Test: LATS1 primary screen HTRF kinEASE assay (high-throughput compound screening)
Conditions: read-out: LATS1 IC50 (LATS1 HTRF assay of the HTS); ATP at Km (31.4 μM); top concentration 30 μM

IC50: 1000 nM
Structure (SMILES): CCN(Cc1ccc2c(c1)OCCO2)c1nc(-c2ccncc2)nc2ccccc12
